Source: PMC7723054
This is one part of the list.

B1: hsa-mir-134 (structured_RNA)
RNA: GGGAGCUGGAUCGAAGCACACGUAAAGAGGUGUACGAAGUUUCAGCGAGGGGCAUGCACUGUGUUCACCCUGGCUGAAGCUUCGUGCAC
B2: hsa-mir-550b-2 (structured_RNA)
RNA: GGGAACAGGACCAUCACGUCACACGAUCGGUGUACGAAGUUUCAGCAAGACACUAUCUGACAACAACAGGGCUCUUGCUGAAGCUUCGUGCAC
B3: hsa-mir-2114 (structured_RNA)
RNA: GGGACUUUGAGCUUCCGAACAUGCACGCGGUGUACGAAGUUUCAGCCGGUCGGAUAAUCACAUGACGAGGCUGAAGCUUCGUGCAC
B4: hsa-mir-4524a (structured_RNA)
RNA: GGGACCGACGAGAGCAACUAUCCCAAGCGGUGUACGAAGUUUCAGCCUCACUGCAGAAUUAUUUUGAGGCUGAAGCUUCGUGCAC
B5: hsa-mir-658 (structured_RNA)
RNA: GGGACAGCUCCACACGAGUUUCAUCGCCGGUGUACGAAGUUUCAGCCGCCAGCUCGCUGACAGCACGACUCAGGGCGGCUGAAGCUUCGUGCAC
B6: G4_(UGGGU)8 (structured_RNA)
RNA: GGGAAUAGUCAAGCAGGGCGACACAUCUGGUGUACGAAGUUUCAGCUGGGUUGGGUUGGGUUGGGUUGGGUUGGGUUGGGUUGGGUGCUGAAGCUUCGUGCAC
B7: hsa-mir-4719 (structured_RNA)
RNA: GGGAAGUGCAGCUGCCUACGAUCUAUCGGGUGUACGAAGUUUCAGCGUGAUUACAUUAAAACUUAAAAUUUCACGCUGAAGCUUCGUGCAC
B8: hsa-mir-4748 (structured_RNA)
RNA: GGGAGCUAGUGUCAUUGUUCCCGGCACUGGUGUACGAAGUUUCAGCUGCUGGUGCUAGAGAGGAAAGCAGCUGAAGCUUCGUGCAC
B9: hsa-mir-196b (structured_RNA)
RNA: GGGAAAUGGGGUUCCUUUGUACGCUAACGGUGUACGAAGUUUCAGCUUGGGAUCCACCUUUCUCUCGAGCUGAAGCUUCGUGCAC
B10: hsa-mir-6134 (structured_RNA)
RNA: GGGAAAAUCGGCUCGCAUACGGCUUUCUGGUGUACGAAGUUUCAGCUGCAUAAAUGAAGCUGAAUGAGCUGAAGCUUCGUGCAC
B11: hsa-mir-4481 (structured_RNA)
RNA: GGGACGGGAGUCCCGAUAGAACUUCAUUGGUGUACGAAGUUUCAGCGUUUUUUAAGAGGAAGGGAGACCUAAGCUAGCAGCUGAAGCUUCGUGCAC
B12: hsa-mir-622 (structured_RNA)
RNA: GGGAAGCGGCUUUGGCAUCCCAGUAUACGGUGUACGAAGUUUCAGCUUGAGGAGAGCACCACAGUGGUCAUCACACAGGCUGAAGCUUCGUGCAC

How the values were obtained:
Test in all cases: FOREST: bead pull-down of RNA structure library v1, barcode microarray; U1A/LIN28A: 20 mM HEPES pH 7.5, 80 mM KCl, 20 mM NaCl, 10% glycerol, 2 mM DTT, 0.1 ug/uL BSA, 4 C; BG4/CIRBP/DHX36: 10 mM Tris-HCl pH 7.5, 100 mM KCl (or LiCl),; high values mean tight binding
[1] = target: U1A (Homo sapiens, UniProt P09012)
[2] = target: T1, LIN28A (human?, UniProt Q9H9Z2 1-209)
T1 sequence: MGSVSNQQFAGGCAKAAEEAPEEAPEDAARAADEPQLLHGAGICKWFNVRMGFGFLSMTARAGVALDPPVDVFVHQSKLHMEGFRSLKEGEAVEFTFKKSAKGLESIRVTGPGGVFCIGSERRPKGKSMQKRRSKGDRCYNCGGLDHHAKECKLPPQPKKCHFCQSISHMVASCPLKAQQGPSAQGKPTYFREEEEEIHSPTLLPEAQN

[3] = target: T2, CIRBP (Homo sapiens, UniProt Q14011 1-172)
T2 sequence: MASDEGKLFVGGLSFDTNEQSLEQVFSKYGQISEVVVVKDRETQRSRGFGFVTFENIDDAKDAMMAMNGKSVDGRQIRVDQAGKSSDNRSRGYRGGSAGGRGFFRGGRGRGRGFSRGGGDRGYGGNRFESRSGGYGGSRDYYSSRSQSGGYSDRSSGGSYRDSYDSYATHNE

[4] = target: T3, DHX36 (Homo sapiens, UniProt Q9H2U1 1-1008)
T3 sequence: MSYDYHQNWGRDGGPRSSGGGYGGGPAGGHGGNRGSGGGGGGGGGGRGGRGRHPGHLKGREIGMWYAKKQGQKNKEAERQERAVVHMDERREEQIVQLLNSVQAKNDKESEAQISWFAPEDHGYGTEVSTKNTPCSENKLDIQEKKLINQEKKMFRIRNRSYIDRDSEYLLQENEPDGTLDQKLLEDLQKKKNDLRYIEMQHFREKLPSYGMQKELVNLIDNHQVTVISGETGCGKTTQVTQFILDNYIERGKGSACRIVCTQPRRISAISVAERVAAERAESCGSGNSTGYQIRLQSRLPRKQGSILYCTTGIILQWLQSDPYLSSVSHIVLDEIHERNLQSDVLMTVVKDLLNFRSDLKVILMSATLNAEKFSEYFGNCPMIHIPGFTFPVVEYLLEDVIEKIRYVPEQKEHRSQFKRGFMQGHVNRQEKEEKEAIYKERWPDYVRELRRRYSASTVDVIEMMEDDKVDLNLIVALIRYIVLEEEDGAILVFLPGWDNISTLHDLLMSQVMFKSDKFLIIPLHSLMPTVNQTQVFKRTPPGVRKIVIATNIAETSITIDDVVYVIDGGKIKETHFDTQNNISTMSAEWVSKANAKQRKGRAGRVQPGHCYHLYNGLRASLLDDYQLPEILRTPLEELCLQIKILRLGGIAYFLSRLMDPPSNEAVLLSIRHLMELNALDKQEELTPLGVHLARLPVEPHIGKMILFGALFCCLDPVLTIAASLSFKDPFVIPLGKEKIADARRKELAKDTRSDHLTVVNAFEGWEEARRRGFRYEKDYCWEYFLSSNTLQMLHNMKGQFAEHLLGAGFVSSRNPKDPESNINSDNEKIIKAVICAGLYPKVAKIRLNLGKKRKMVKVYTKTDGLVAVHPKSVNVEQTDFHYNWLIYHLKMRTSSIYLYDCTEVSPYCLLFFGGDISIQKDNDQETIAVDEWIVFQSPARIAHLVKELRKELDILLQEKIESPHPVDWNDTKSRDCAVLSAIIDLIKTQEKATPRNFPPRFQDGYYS

Binder	binding signal [1] [z-score]	binding signal [2] [z-score]	binding signal [3] [z-score]	binding signal [4] [z-score]
B1	1.29	-1.28	-1.11	-0.0148
B2	1.28	0.823	2.07	0.414
B3	2.6	-0.0484	-0.126	-0.656
B4	1.28	0.842	-1.24	0.0202
B5	1.28	0.447	0.278	-0.325
B6	1.28	1.77	3.7	6.68
B7	1.28	0.902	1.02	0.354
B8	1.26	0.704	0.181	1.26
B9	1.26	-0.575	-0.0503	-0.717
B10	1.25	0.644	0.284	0.621
B11	1.25	2.15	-3.52	-0.0716
B12	1.25	-0.0536	0.119	-0.529
